{
  "source": "patent US20080226722A1",
  "about": "“Gel Composition Comprising Charged Polymers” (priority 2004, published 2008)",
  "key": {"[1]": {"test": "Incorporation of protein into charged microparticles", "format": "physicochemical", "details": "neutral or physiological pH"}, "[2]": {"test": "Protein release from gels comprising anionically and cationically charged microparticles (release buffer, 37° C., BCA Protein Assay)", "format": "physicochemical", "details": "for time to reach a release of 50% of protein: HEPES pH 7 isotonised with NaCl, 37° C.", "procedure": "To each of the gels prepared according to example 5, 1.5 mL release buffer (HEPES, pH 7, 100 mM, isotonised with NaCl) was added. Subsequently, the cups were incubated at 37° C. Samples of 1.0 mL were taken at various intervals and replaced by 1.0 mL fresh buffer. The protein concentration in the samples was measured […] using the BCA Protein Assay.\nGels loaded with IgG were prepared in analogy to example 5 and tested in analogy to example 6, except that IgG was used as a model protein instead of lysozyme and BSA."}},
  "data": [
    {"substance": "bovine serum albumin [BSA]", "values": [
      {"measurement": "incorporation into negatively charged microparticles", "setting": "[1]", "value": "The opposite is true"},
      {"measurement": "incorporation into positively charged microparticles", "setting": "[1]", "value": "The opposite is true"},
      {"measurement": "time to reach a release of 50% of protein", "setting": "[2]; 12.5%-gel (solid content about 12.5%)", "value": "about 30 h"},
      {"measurement": "time to reach a release of 50% of protein", "setting": "[2]; 25.5%-gel (so in the source)", "value": "about 100 h"},
      {"measurement": "release rate compared with the other model proteins", "setting": "[2]; gels of oppositely charged microparticles", "value": "released more slowly than lysozyme"}
    ]}
  ]
}
